Experimental data reported in paper PMC10712105 (Journal of Translational Medicine, 2023).

Test system: SK-LMS-1 xenograft tumors
Assay type: in vivo, SCID mice
Set-up: Estimate of tumor volume difference vs Vehicle: unit not given here
Conditions: Day 9
Method: SK-LMS-1 cell line (HTB-88) was purchased from ATCC. […] Equal number (12) of female and male mice were used in this experiment. […] The intended schedule for drug or vehicle treatment was weekly for 3 doses. However, mice in groups 2 and 5 with DOX at 5 mg/kg after 2 doses lost > 20% BW, indicating severe toxicity. […] One male mouse from group 6 had some health issues early on and was sacrificed on Day 14.
A mixed linear regression model was made with tumor volume as the outcome on day 2, 6, and 9. The model tested for group differences adjusted for time, day 0 volume, and sex. There was a within animal correlation modeled using a random intercept. […] A significant interaction between group and time was found (type III F test p<0.0001) along with significant group differences (the group differences varied depending on day). Sex differences were not significant (type III F test p=0.9124). There was a significant difference in average tumor volume at starting on day 2 between SPESN38-8 and vehicle (p=0.0212). On day 9 all three group comparisons were significant after adjustment for multiplicity (p<0.0001 for all). […] The black color columns are within group at between days, the red columns are between group at each day.
Furthermore, tumor weight, summary of tumor weight in three groups for vehicle, DOX, and SPESN38-8 at their ending days are shown in Table S10. […]

With `COc1cccc2c1C(=O)c1c(O)c3c(c(O)c1C2=O)C[C@@](O)(C(=O)CO)C[C@@H]3O[C@H]1C[C@H](N)[C@H](O)[C@H](C)O1` [DOX, doxorubicin] as the molecule, how does the “slowing of tumor growth rate in TV relative to the control group” value (DOX 5 mg/kg) read?
Its value is ~ 2 X.

What about the “Estimate of tumor volume difference vs Vehicle” value (mixed linear regression model, Tukey-Kramer pairwise test) of the same molecule?
The value was -361.96.
